Data reported in patent US20050287552A1, “Carbohydrate encapsulated nanoparticle based affinity mass spectrometry” (Academia Sinica, Office of Public Affairs (Technology …, priority 2003, published 2005).

How the values were obtained:
Con A = Con A (Canavalia ensiformis, UniProt P02866); experiment: SPR competition binding assay for Con A; details: individual mannose ligand with respect to monovalent αMeMan
Excerpt: To assess the binding affinity of α-D-methyl-mannopyrannoside (αMeMan) and various carbohydrate-AuNP for Con A, an SPR competition binding assay was employed based on previous reports (See Mann et al., J. Am. Chem. Soc. 1998, 120:10575; and Nieba et al., Anal. Biochem., 1996, 234:155; herein incorporated by reference) with certain modifications. A self-assembled monolayer composed of 20% mannopyranoside ligand and 80% thiobutanol mixture was generated on a J1 biosensor chip (See FIG. 9). In particular, immobilization of ligand to the biosensor chip was preformed in BIAcore 3000 instrument. […]
Next, the binding affinity of Con A for this chip was determined by titration with a series of Con A concentrations to generate multiple SPR curves. […]
Competition assays were then conducted. […] Ki values were determined by fitting the data into the equation: f=[I]/([I]+Ki (1+F/Kd). From the inhibition curves of each carbohydrate-AuNP, its inhibition constant (Ki) is obtained using the equations derived by Attie et al., J. Chem. Educ., 1995, 72:119. These values are shown in Table 4 below. Also, to compare the inhibition potencies of the individual mannose ligand on three different mannose-AuNP, with respect to monovalent αMeMan, the relative inhibition potency (RIP) was calculated (shown in Table 4).

[1] = target: type 1 pili in E. coli (FimH), ORN178 (Escherichia coli, UniProt P08191); type: binding

Substance: α-D-methyl-mannopyrannoside [αMeMan]
- RIP (relative inhibition potency) (Con A): 1.0
- Mannose concentration required for competing out ~10% of m-AuNP binding to bacterial pili ([1]; ORN178): approximately 100 times of m-AuNP
- Mannose concentration required for competing out ~90% of m-AuNP binding to bacterial pili ([1]; ORN178): ~2000 times of m-AuNP
- effect on the binding of m-AuNP to bacterial pili ([1]; concentrations up to twenty times of m-AuNP concentration): no or little effect
